This assay concerns NMC 797 and Per403 cells. In words: Differentiation and proliferation immunohistochemistry in NMC cells. It counts as cell-based, human.

A value given as a limit tells only on which side of the number the result lay.

`Cc1sc2c(c1C)C(c1ccc(Cl)cc1)=NC(CC(=O)OC(C)(C)C)c1nnc(C)n1-2` (racemic) [JQ1, tert-Butyl 2-(4-(4-chlorophenyl)-2,3,9-trimethyl-6H-thieno[3,2-f][1,2,4]triazolo[4,3-a][1,4]diazepin-6-yl)acetate] displayed a time to differentiation of less than 24 h.

Values taken from US10407441B2, “Compositions and methods for treating neoplasia, inflammatory disease and other disorders” (Dana-Farber Cancer Institute, Inc., priority 2010, dated 2019).
